Out of some 340,000 compounds screened, about 2,100 (0.62%) were called active. The source calls these results inconclusive, neither active nor inactive.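 The calls were made as follows: active = first-screen hits whose inhibition reached a set limit at any dose in the follow-up dose series; inconclusive = inhibition above the set first-screen limit but never retested; inactive = the rest.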
molecular target: Rac GTPase-activating protein 1 (Homo sapiens) (UniProt Q9H0H5); test: blockers of MgcRacGAP-driven Rac1 GTP hydrolysis – biochemical, ADP Hunter fluorescence, primary and confirmatory, confirmation (AID 624330); conditions: MgcRacGAP-stimulated Rac1 GTP hydrolysis, at 30 µM, stronger effect = higher value, GST-tagged Rac1 F28L mutant substrate;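 also: fluorescence reports GDP produced by GAP-driven GTP hydrolysis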

Protein sequences, listed by entry. Tags and fused reporters are not part of them. Lines headed by an entry give the natural chain unless they say otherwise; changes in a name come on top.
UniProt Q9H0H5: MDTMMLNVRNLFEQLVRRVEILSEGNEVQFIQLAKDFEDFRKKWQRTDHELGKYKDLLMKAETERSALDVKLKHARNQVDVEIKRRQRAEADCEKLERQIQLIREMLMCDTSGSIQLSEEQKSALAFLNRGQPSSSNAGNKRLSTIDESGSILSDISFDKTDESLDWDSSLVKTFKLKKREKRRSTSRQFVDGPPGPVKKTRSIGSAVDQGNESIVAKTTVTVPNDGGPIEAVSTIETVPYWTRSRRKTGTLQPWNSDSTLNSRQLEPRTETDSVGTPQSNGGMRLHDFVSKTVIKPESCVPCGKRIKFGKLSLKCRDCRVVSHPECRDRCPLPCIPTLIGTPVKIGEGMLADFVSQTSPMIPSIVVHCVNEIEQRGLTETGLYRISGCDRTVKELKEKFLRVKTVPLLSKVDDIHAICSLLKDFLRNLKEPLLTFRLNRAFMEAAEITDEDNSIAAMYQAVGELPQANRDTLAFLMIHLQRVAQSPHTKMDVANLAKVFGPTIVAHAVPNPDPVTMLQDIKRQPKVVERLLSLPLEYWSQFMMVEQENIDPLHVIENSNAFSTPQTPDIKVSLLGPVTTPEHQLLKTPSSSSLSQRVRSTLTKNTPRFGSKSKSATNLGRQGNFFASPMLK

SMILES	inhibition
CC(=O)Nc1ccc(Oc2c([N+](=O)[O-])cc([N+](=O)[O-])cc2[N+](=O)[O-])cc1	inconclusive: 114%
CS(=O)(=O)c1cc([N+](=O)[O-])c2no[n+]([O-])c2c1	inconclusive: 38%
O=P(Nc1nccs1)(c1ccccc1)c1nc2ccccc2s1 (stereo not drawn)	inconclusive: 42.1%
